# Target: human GnRH receptor (Homo sapiens, UniProt P30968)
# Protein sequences, listed by entry. Tags and fused reporters are not part of them.
# UniProt P30968, whole entry: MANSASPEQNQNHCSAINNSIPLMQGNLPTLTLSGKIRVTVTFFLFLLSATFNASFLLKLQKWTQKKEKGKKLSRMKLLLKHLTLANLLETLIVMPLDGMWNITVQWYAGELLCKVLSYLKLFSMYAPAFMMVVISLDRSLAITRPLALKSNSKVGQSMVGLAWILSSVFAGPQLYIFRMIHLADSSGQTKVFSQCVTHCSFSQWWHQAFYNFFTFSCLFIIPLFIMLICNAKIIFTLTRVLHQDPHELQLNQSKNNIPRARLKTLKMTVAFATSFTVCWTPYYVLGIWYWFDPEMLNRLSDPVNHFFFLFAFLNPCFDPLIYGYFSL
# Experiment: IP-One HTRF assay with buserelin stimulation
# Type: cell-based
# Settings: not given
row,SMILES,IC50 [nM]
1,"O=C(NCc1ncc(C(F)(F)F)cc1F)c1ccc2c(c1)C1(CCS(=O)(=O)CC1)C(C1CC1)N2S(=O)(=O)c1cccc(OC(F)F)c1 (single isomer, unassigned) [Example 13.1]",122
2,"Cc1cnc(CNC(=O)c2ccc3c(c2)C2(CCS(=O)(=O)CC2)C(C2CC2)N3S(=O)(=O)c2ccc(F)cc2)c(C(F)(F)F)c1 (single isomer, unassigned) [Example 5.2]",4250
3,"O=C(NCc1ncc(C(F)(F)F)cc1F)c1ccc2c(c1)C1(CCS(=O)(=O)CC1)C(C1CC1)N2S(=O)(=O)c1cccc(OC(F)F)c1 (single isomer, unassigned) [Example 13.2]",> 20000
4,"O=C(NCc1ncc(C(F)(F)F)cc1Cl)c1ccc2c(c1)C1(CCS(=O)(=O)CC1)C(C1CC1)N2S(=O)(=O)c1cccc(OC(F)F)c1 (single isomer, unassigned) [Example 14.1]",22
5,"O=C(NCc1ncc(C(F)(F)F)cc1F)c1ccc2c(c1)C1(CCS(=O)(=O)CC1)C(C1CC1)N2S(=O)(=O)c1ccc(OC(F)F)cc1 (single isomer, unassigned) [Example 15.1]",45
6,"O=C(NCc1ncc(C(F)(F)F)cc1Cl)c1ccc2c(c1)C1(CCS(=O)(=O)CC1)C(C1CC1)N2S(=O)(=O)c1cccc(OC(F)F)c1 (single isomer, unassigned) [Example 14.2]",3950
7,O=C(NCc1ncc(C(F)(F)F)cc1F)c1ccc2c(c1)C1(CCS(=O)(=O)CC1)C(C1CC1)N2S(=O)(=O)c1ccc(Cl)cc1 (centres unmarked),1530
8,"Cc1cnc(CNC(=O)c2ccc3c(c2)C2(CCS(=O)(=O)CC2)C(C2CC2)N3S(=O)(=O)c2ccc(F)cc2)c(C(F)(F)F)c1 (single isomer, unassigned) [Example 5.1]",606
9,"O=C(NCc1ncc(C(F)(F)F)cc1F)c1ccc2c(c1)C1(CCS(=O)(=O)CC1)C(C1CC1)N2S(=O)(=O)c1ccc(OC(F)F)cc1 (single isomer, unassigned) [Example 15.2]",> 20000
10,NC(=O)c1ccc(S(=O)(=O)N2c3ccc(C(=O)NCc4ncc(C(F)(F)F)cc4Cl)cc3C3(CCS(=O)(=O)CC3)C2C2CC2)cc1 (centres unmarked),122
11,O=C(NCc1ncc(C(F)(F)F)cc1Cl)c1ccc2c(c1)C1(CCS(=O)(=O)CC1)C(C1CC1)N2S(=O)(=O)c1ccc(OC(F)F)cc1 (centres unmarked),24
12,"COc1cccc(S(=O)(=O)N2c3ccc(C(=O)NCc4ncc(C(F)(F)F)cc4F)cc3C3(CCS(=O)(=O)CC3)C2C2CC2)c1 (single isomer, unassigned) [Example 6.1]",110
13,"COc1cccc(S(=O)(=O)N2c3ccc(C(=O)NCc4ncc(C(F)(F)F)cc4F)cc3C3(CCS(=O)(=O)CC3)C2C2CC2)c1 (single isomer, unassigned) [Example 6.2]",3260
14,"O=C(NCc1ncc(C(F)(F)F)cc1F)c1ccc2c(c1)C1(CCS(=O)(=O)CC1)C(C1CC1)N2S(=O)(=O)c1cccc(OC(F)(F)F)c1 (single isomer, unassigned) [Example 11.2]",> 20000
15,"O=C(NCc1ncc(C(F)(F)F)cc1F)c1ccc2c(c1)C1(CCS(=O)(=O)CC1)C(C1CC1)N2S(=O)(=O)c1cccc(OC(F)(F)F)c1 (single isomer, unassigned) [Example 11.1]",262
16,N#Cc1ccc(S(=O)(=O)N2c3ccc(C(=O)NCc4ncc(C(F)(F)F)cc4F)cc3C3(CCS(=O)(=O)CC3)C2C2CC2)cc1 (centres unmarked),> 20000

# Target: human GnRHR (Homo sapiens, UniProt P30968)
# Experiment: Tag-Lite receptor binding assay
# Settings: read-out: Potency in receptor binding assay using TAG-LITE technology, given as IC50; Hek293 cells transiently transfected with human GnRHR; displacement of green-labelled GnRHR binding peptide
row,SMILES,IC50 [nM]
1,NC(=O)c1ccc(S(=O)(=O)N2c3ccc(C(=O)NCc4ncc(C(F)(F)F)cc4Cl)cc3C3(CCS(=O)(=O)CC3)C2C2CC2)cc1 (centres unmarked),81.7

# Source: US20160052936A1, “SPIROINDOLINE DERIVATIVES FOR USE AS GONADOTROPIN-RELEASING HORMONE RECEPTOR ANTAGONISTS” (BAYER PHARMA AKTIENGESELLSCHAFT, priority 2013, published 2016)
